Here are results for one compound from article PMC5748751, “Study of Structure and Permeability Relationship of Flavonoids in Caco-2 Cells” (Nutrients, 2017).

This series has as its system Caco-2 cell monolayer. Briefly: Cellular accumulation (CA) of flavonoids in Caco-2 cell monolayer. Particulars: both sides (CA A to B and CA B to A).

In the case of `COc1ccc(CCC(=O)c2c(O)cc(O[C@@H]3O[C@H](CO)[C@@H](O)[C@H](O)[C@H]3O[C@@H]3O[C@@H](C)[C@H](O)[C@@H](O)[C@H]3O)cc2O)cc1O` [Compound 30, Neohesperidin dihydrochalcone], the CA was under 0.26 µmol/g.
